These results are taken from publication PMC7906907, “Targeting STAT3 by a small molecule suppresses pancreatic cancer progression” (Oncogene, 2021).

Protein sequences, listed by entry. Tags and fused reporters are not part of them. Residues count along the entry.
UniProt P40763, 127-722 limits assumed: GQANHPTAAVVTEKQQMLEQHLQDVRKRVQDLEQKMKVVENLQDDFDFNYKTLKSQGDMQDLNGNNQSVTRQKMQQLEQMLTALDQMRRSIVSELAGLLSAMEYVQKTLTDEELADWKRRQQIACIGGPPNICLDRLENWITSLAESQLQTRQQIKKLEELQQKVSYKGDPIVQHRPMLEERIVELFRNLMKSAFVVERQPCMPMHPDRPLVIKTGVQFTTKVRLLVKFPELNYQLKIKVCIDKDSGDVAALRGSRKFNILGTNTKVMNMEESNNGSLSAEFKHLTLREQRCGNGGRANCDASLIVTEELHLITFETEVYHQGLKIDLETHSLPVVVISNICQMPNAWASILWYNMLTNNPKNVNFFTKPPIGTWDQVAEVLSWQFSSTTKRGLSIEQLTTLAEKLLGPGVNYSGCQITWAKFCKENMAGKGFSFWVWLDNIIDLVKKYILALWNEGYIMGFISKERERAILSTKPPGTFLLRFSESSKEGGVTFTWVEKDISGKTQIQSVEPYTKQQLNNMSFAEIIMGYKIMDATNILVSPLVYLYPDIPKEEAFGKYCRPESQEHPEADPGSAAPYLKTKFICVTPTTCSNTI

The structures appear in SMILES notation. Where only a bound is given, the exact number is not on record here.

For the assay, the target named is His-STAT3^127-722 protein (Homo sapiens, UniProt P40763). Description: Fluorescence polarization (FP) assay, STAT3-phosphopeptide interaction. Format: binding. The following applies: read-out: FP assay (IC50 μM); Supplementary Table 1; inhibition of STAT3 dimerization in FP assay. For orientation: Polarisation of emitted light reports the rotation of a fluorescent probe.
For `COc1cc2c(cc1C(=O)Nc1ccc3cn[nH]c3c1)CCC1C(C)(C)C(=O)C(C#N)=CC21C` (centres unmarked), the IC50 came to 6.79 µM. Consider `COc1cc2c(cc1C(=O)Nc1ccc3cc[nH]c3c1)CCC1C(C)(C)C(=O)C(C#N)=CC21C` (centres unmarked), for which the concentration for half-maximal inhibition (IC50) amounted to 6.38 µM. To `COC(=O)c1cc2c(cc1OC)C1(C)C=C(C#N)C(=O)C(C)(C)C1CC2` (centres unmarked) belongs 15.6 µM.

Consider `COc1cc2c(cc1C(=O)Nc1cccc3ncccc13)CCC1C(C)(C)C(=O)C(C#N)=CC21C` (centres unmarked), for which the half-inhibitory concentration (IC50) amounted to 8.41 µM. Consider `COc1cc2c(cc1C(=O)O)CCC1C(C)(C)C(=O)C(C#N)=CC21C` (centres unmarked), for which the IC50 is more than 20 µM. Regarding `COc1cc2c(cc1C(=O)N1CCCCC1)CCC1C(C)(C)C(=O)C(C#N)=CC21C` (centres unmarked), the concentration for half-maximal inhibition (IC50) came to 6.14 µM. Consider `COc1cc2c(cc1C(=O)N(C)c1ncc([N+](=O)[O-])s1)CCC1C(C)(C)C(=O)C(C#N)=CC21C` (centres unmarked), for which the IC50 stood at 5.37 µM. In the case of `COc1cc2c(cc1C(=O)N1CCCC1)CCC1C(C)(C)C(=O)C(C#N)=CC21C` (centres unmarked), the IC50 is 8.96 µM. Regarding `COc1cc2c(cc1C(=O)Nc1ncc(C)s1)CCC1C(C)(C)C(=O)C(C#N)=CC21C` (centres unmarked), the IC50 was found to be 8.73 µM. For the molecule `CCCNC(=O)c1cc2c(cc1OC)C1(C)C=C(C#N)C(=O)C(C)(C)C1CC2` (centres unmarked), the IC50 came out at 7.71 µM. As to `COc1cc2c(cc1C(=O)Nc1ncc([N+](=O)[O-])s1)CCC1C(C)(C)C(=O)C(C#N)=CC21C` (centres unmarked), the IC50 was 1.01 µM. Then `COc1cc2c(cc1C(=O)Nc1ccc3ncsc3c1)CCC1C(C)(C)C(=O)C(C#N)=CC21C` (centres unmarked), with 4.58 µM; and `COc1cc2c(cc1C(=O)Nc1cccc3[nH]ccc13)CCC1C(C)(C)C(=O)C(C#N)=CC21C` (centres unmarked), with 1.88 µM; and `COc1cc2c(cc1C(=O)Nc1nc3ccccc3s1)CCC1C(C)(C)C(=O)C(C#N)=CC21C` (centres unmarked), with 1.45 µM. Consider `COc1cc2c(cc1C(=O)Nc1nc3c(C)cccc3s1)CCC1C(C)(C)C(=O)C(C#N)=CC21C` (centres unmarked), for which the IC50 stood at 8.33 µM. Then `COc1cc2c(cc1C(=O)NC(C)C)CCC1C(C)(C)C(=O)C(C#N)=CC21C` (centres unmarked), with 8.23 µM. As to `COc1cc2c(cc1C(=O)Nc1ccc3[nH]ncc3c1)CCC1C(C)(C)C(=O)C(C#N)=CC21C` (centres unmarked), the IC50 is more than 20 µM.

One may read the IC50 as the concentration needed to halve the response being measured.
